Measured values reported in patent US11129827B2 (priority 2017, dated 2021).

Protein sequences, listed by entry. Tags and fused reporters are not part of them.
UniProt O08914, whole entry, looked up: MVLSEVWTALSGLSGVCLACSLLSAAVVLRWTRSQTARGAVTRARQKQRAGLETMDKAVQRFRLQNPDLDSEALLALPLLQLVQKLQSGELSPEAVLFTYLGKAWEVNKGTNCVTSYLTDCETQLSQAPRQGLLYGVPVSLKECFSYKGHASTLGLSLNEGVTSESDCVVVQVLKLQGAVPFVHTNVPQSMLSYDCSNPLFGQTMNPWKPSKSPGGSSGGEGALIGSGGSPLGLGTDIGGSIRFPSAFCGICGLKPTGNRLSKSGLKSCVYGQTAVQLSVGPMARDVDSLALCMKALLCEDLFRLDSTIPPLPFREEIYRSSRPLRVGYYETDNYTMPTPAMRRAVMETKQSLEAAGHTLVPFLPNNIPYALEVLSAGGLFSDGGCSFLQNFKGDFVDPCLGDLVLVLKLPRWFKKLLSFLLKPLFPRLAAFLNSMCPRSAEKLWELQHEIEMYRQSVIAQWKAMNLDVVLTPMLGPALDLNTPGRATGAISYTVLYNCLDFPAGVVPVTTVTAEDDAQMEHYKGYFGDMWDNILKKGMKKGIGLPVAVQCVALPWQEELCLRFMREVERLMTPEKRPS
UniProt O35678, whole entry, looked up: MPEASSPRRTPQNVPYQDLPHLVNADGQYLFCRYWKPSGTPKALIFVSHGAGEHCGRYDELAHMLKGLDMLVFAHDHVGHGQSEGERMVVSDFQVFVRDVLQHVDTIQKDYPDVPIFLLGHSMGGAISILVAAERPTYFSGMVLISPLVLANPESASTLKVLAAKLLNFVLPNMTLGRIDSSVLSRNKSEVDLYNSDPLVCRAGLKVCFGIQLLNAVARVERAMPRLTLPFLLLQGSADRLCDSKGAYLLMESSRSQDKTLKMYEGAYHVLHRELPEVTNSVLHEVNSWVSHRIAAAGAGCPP
UniProt O00519, whole entry, looked up: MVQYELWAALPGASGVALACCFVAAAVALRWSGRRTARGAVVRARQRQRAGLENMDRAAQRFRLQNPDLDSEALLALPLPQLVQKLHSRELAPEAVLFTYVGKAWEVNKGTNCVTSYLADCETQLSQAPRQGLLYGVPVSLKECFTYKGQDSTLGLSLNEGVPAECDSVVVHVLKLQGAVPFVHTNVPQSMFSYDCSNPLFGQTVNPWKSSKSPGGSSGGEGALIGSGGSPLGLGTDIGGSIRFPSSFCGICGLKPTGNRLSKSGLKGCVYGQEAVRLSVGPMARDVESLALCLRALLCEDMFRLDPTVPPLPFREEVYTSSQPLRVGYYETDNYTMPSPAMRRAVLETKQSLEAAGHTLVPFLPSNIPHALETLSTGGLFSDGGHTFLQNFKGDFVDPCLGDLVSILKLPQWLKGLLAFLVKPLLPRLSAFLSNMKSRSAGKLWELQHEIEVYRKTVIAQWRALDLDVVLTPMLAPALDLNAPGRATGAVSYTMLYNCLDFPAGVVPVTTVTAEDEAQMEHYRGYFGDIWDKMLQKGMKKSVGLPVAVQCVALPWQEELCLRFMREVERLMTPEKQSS
UniProt Q99685, whole entry, looked up: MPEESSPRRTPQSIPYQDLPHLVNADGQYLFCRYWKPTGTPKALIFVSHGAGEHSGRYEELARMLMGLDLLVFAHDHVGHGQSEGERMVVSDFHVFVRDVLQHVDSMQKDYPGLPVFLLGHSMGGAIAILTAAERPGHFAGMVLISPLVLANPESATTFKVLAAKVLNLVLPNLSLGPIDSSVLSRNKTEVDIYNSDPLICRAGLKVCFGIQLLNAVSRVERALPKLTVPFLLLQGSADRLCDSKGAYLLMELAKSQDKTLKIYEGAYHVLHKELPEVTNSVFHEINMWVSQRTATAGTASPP

Key:
FAAH [1] = target: FAAH (Mus musculus (Mouse), UniProt O08914); assay: Mouse brain proteomes from inhibitor treated mice (oral gavage, ABPP analysis); type: in vivo; details: 5 mg/kg oral gavage, C57Bl/6J mouse brain, 4 h following administration
MAGL [2] = target: MAGL (Mus musculus (Mouse), UniProt O35678); assay: as above; type: in vivo; details: 5 mg/kg oral gavage, C57Bl/6J mouse brain, 4 h following administration
FAAH [3] = target: FAAH (Homo sapiens (Human), UniProt O00519); details: for FAAH (human) % inh. 1 μM / IC50: human prefrontal cortex or cell membrane fractions; for IC50: read-out: FAAH (human) IC50
MAGL [4] = target: MAGL (Homo sapiens (Human), UniProt Q99685); details: for MAGL (human) % inh. 1 μM / IC50: human prefrontal cortex or cell membrane fractions; for IC50: read-out: MAGL (human) IC50; for MAGL (human) % inh. (50 μM): 50 μM (stated in cell instead of 1 μM); for MAGL (human) % inh. (10 μM): 10 μM (stated in cell instead of 1 μM)

| Compound | FAAH (mouse) % inh. 5 mg/kg (FAAH [1]) | MAGL (mouse) % inh. 5 mg/kg (MAGL [2]) | FAAH (human) % inh. 1 μM (FAAH [3]) | IC50 (FAAH [3]) [nM] | MAGL (human) % inh. 1 μM (MAGL [4]) | IC50 (MAGL [4]) [nM] | MAGL (human) % inh. (50 μM) (MAGL [4]) | MAGL (human) % inh. (10 μM) (MAGL [4]) | FAAH (human) % inh. (10 μM) (FAAH [3]; 10 μM (stated in cell instead of 1 μM)) | FAAH (human) % inh. (50 μM) (FAAH [3]; 50 μM (stated in cell instead of 1 μM)) |
| --- | --- | --- | --- | --- | --- | --- | --- | --- | --- | --- |
| CCOc1cc(OC2CCN(C(=O)Oc3cncc(C(N)=O)c3)CC2)ccc1Cl | A (% inhibition is greater than or equal to 75%) | A (% inhibition is greater than or equal to 75%) | A (% inhibition is greater than or equal to 75%) | < 100 | A (% inhibition is greater than or equal to 75%) | < 100 | – | – | – | – |
| C[C@@H]1CN(Cc2cc(F)cc(Cl)c2)CCN1C(=O)Oc1cncc(C(N)=O)c1 | A (% inhibition is greater than or equal to 75%) | A (% inhibition is greater than or equal to 75%) | A (% inhibition is greater than or equal to 75%) | < 100 | A (% inhibition is greater than or equal to 75%) | 100 to 1000 | – | – | – | – |
| C[C@@H]1CN(Cc2cc(F)cc(C(F)(F)F)c2)CCN1C(=O)Oc1cncc(N)c1 | – | – | A (% inhibition is greater than or equal to 75%) | – | – | – | C (50 μM) (% inhibition is greater than or equal to 25% and less than 50%) | – | – | – |
| O=C(Oc1cncc(F)c1)N1CCN(Cc2cnccc2C(F)(F)F)CC1 | – | – | A (% inhibition is greater than or equal to 75%) | < 100 | A (% inhibition is greater than or equal to 75%) | 100 to 1000 | – | – | – | – |
| C[C@@H]1CN(Cc2cnccc2C(F)(F)F)CCN1C(=O)Oc1cncc(C#N)c1 | A (% inhibition is greater than or equal to 75%) | D (% inhibition is greater than or equal to 0% and less than 25%) | A (% inhibition is greater than or equal to 75%) | < 100 | A (% inhibition is greater than or equal to 75%) | 1000 to 10000 | – | – | – | – |
| CC(C)Oc1cc(CN2CCN(C(=O)Oc3cncc(N)c3)[C@H](C)C2)ccc1Cl | – | – | A (% inhibition is greater than or equal to 75%) | < 100 | C (% inhibition is greater than or equal to 25% and less than 50%) | 1000 to 10000 | – | – | – | – |
| C[C@@H]1CN(Cc2cc(F)cc(C(F)(F)F)c2)CCN1C(=O)Oc1cncc(F)c1 | – | – | A (% inhibition is greater than or equal to 75%) | < 100 | – | 100 to 1000 | – | A (10 μM) (% inhibition is greater than or equal to 75%) | – | – |
| Cc1c(CN2CCN(C(=O)Oc3cncc(C#N)c3)[C@H](C)C2)cccc1C(F)(F)F | – | – | A (% inhibition is greater than or equal to 75%) | < 100 | A (% inhibition is greater than or equal to 75%) | < 100 | – | – | – | – |
| C[C@@H]1CN(Cc2cccc(OC(F)(F)F)c2)CCN1C(=O)Oc1cncc(N)c1 | – | – | A (% inhibition is greater than or equal to 75%) | – | D (% inhibition is greater than or equal to 0% and less than 25%) | – | – | – | – | – |
| NC(=O)c1cc(Cl)cc(CN2CCN(C(=O)Oc3cncc(C(N)=O)c3)CC2)c1 | D (% inhibition is greater than or equal to 0% and less than 25%) | D (% inhibition is greater than or equal to 0% and less than 25%) | A (% inhibition is greater than or equal to 75%) | 100 to 1000 | A (% inhibition is greater than or equal to 75%) | 1000 to 10000 | – | – | – | – |
| Cc1c(CN2CCN(C(=O)Oc3cncc(N)c3)[C@H](C)C2)cccc1C(F)(F)F | – | – | A (% inhibition is greater than or equal to 75%) | – | D (% inhibition is greater than or equal to 0% and less than 25%) | – | – | – | – | – |
| C[C@@H]1CN(Cc2cnccc2C(F)(F)F)CCN1C(=O)Oc1cncc(F)c1 | – | – | A (% inhibition is greater than or equal to 75%) | – | – | – | – | B (10 μM) (% inhibition is greater than or equal to 50% and less than 75%) | – | – |
| COc1ccc(CN2CCN(C(=O)Oc3cncc(F)c3)CC2)cc1C(F)(F)F | – | – | A (% inhibition is greater than or equal to 75%) | < 100 | A (% inhibition is greater than or equal to 75%) | < 100 | – | – | – | – |
| CC(C)Oc1cc(CN2CCN(C(=O)Oc3cncc(N)c3)CC2)ccc1Cl | A (% inhibition is greater than or equal to 75%) | D (% inhibition is greater than or equal to 0% and less than 25%) | A (% inhibition is greater than or equal to 75%) | < 100 | A (% inhibition is greater than or equal to 75%) | 100 to 1000 | – | – | – | – |
| NC(=O)c1cncc(OC(=O)N2CCN(Cc3ccc(Cl)c(C(N)=O)c3)CC2)c1 | – | – | A (% inhibition is greater than or equal to 75%) | – | C (% inhibition is greater than or equal to 25% and less than 50%) | – | – | – | – | – |
| O=C(Oc1cncc(F)c1)N1CCN(Cc2cc(Cl)ccc2C(F)(F)F)CC1 | – | – | A (% inhibition is greater than or equal to 75%) | < 100 | A (% inhibition is greater than or equal to 75%) | < 100 | – | – | – | – |
| Cc1cc(OC(C)C)ccc1CN1CCN(C(=O)Oc2cncc(F)c2)CC1 | – | – | A (% inhibition is greater than or equal to 75%) | < 100 | A (% inhibition is greater than or equal to 75%) | 100 to 1000 | – | – | – | – |

| Compound | FAAH (mouse) % inh. 5 mg/kg (FAAH [1]) | MAGL (mouse) % inh. 5 mg/kg (MAGL [2]) | FAAH (human) % inh. 1 μM (FAAH [3]) | IC50 (FAAH [3]) [nM] | MAGL (human) % inh. 1 μM (MAGL [4]) | IC50 (MAGL [4]) [nM] | MAGL (human) % inh. (50 μM) (MAGL [4]) | MAGL (human) % inh. (10 μM) (MAGL [4]) | FAAH (human) % inh. (10 μM) (FAAH [3]; 10 μM (stated in cell instead of 1 μM)) | FAAH (human) % inh. (50 μM) (FAAH [3]; 50 μM (stated in cell instead of 1 μM)) |
| --- | --- | --- | --- | --- | --- | --- | --- | --- | --- | --- |
| O=C(Oc1cncc(F)c1)N1CCN(Cc2ccc3c(c2)OC(F)(F)O3)CC1 | – | – | A (% inhibition is greater than or equal to 75%) | – | A (% inhibition is greater than or equal to 75%) | – | – | – | – | – |
| C[C@@H]1CN(Cc2ccc(Cl)c(C(N)=O)c2)CCN1C(=O)Oc1cncc(C(N)=O)c1 | – | – | A (% inhibition is greater than or equal to 75%) | – | – | – | – | C (10 μM) (% inhibition is greater than or equal to 25% and less than 50%) | – | – |
| Cc1c(CN2CCN(C(=O)Oc3cncc(F)c3)[C@H](C)C2)cccc1C(F)(F)F | A (% inhibition is greater than or equal to 75%) | D (% inhibition is greater than or equal to 0% and less than 25%) | A (% inhibition is greater than or equal to 75%) | < 100 | B (% inhibition is greater than or equal to 50% and less than 75%) | 100 to 1000 | – | – | – | – |
| C[C@@H]1CN(Cc2cccc(OC(F)(F)F)c2)CCN1C(=O)Oc1cncc(F)c1 | – | – | A (% inhibition is greater than or equal to 75%) | < 100 | – | 1000 to 10000 | A (50 μM) (% inhibition is greater than or equal to 75%) | – | – | – |
| C[C@@H]1CN(Cc2cc(Cl)ccc2C(F)(F)F)CCN1C(=O)Oc1cncc(C#N)c1 | – | – | A (% inhibition is greater than or equal to 75%) | < 100 | A (% inhibition is greater than or equal to 75%) | 100 to 1000 | – | – | – | – |
| C[C@@H]1CN(Cc2cccc(OC(F)(F)F)c2)CCN1C(=O)Oc1cncc(C#N)c1 | – | – | A (% inhibition is greater than or equal to 75%) | < 100 | A (% inhibition is greater than or equal to 75%) | < 100 | – | – | – | – |
| CCOc1cc(CN2CCN(C(=O)Oc3cncc(F)c3)CC2)ccc1Cl | – | – | A (% inhibition is greater than or equal to 75%) | – | A (% inhibition is greater than or equal to 75%) | – | – | – | – | – |
| Cc1c(CN2CCN(C(=O)Oc3cncc(C(N)=O)c3)CC2)cccc1C(F)(F)F | – | – | A (% inhibition is greater than or equal to 75%) | – | A (% inhibition is greater than or equal to 75%) | – | – | – | – | – |
| N#Cc1cncc(OC(=O)N2CCN(Cc3cc(Cl)ccc3C(F)(F)F)CC2)c1 | – | – | A (% inhibition is greater than or equal to 75%) | < 100 | A (% inhibition is greater than or equal to 75%) | < 100 | – | – | – | – |
| C[C@@H]1CN(Cc2cc(Cl)ccc2C(F)(F)F)CCN1C(=O)Oc1cncc(F)c1 | – | – | A (% inhibition is greater than or equal to 75%) | – | – | – | – | A (10 μM) (% inhibition is greater than or equal to 75%) | – | – |
| CC(C)Oc1cc(CN2CCN(C(=O)Oc3cncc(N)c3)[C@@H](C)C2)ccc1Cl | – | – | – | – | A (% inhibition is greater than or equal to 75%) | – | – | – | A (10 μM) (% inhibition is greater than or equal to 75%) | – |
| Cc1c(C#N)cncc1OC(=O)N1CCN(Cc2cc(Cl)ccc2C(F)(F)F)CC1 | – | – | A (% inhibition is greater than or equal to 75%) | < 100 | A (% inhibition is greater than or equal to 75%) | < 100 | – | – | – | – |
| C[C@@H]1CN(Cc2cc(F)cc(C(F)(F)F)c2)CCN1C(=O)Oc1cncc(C#N)c1 | – | – | A (% inhibition is greater than or equal to 75%) | < 100 | A (% inhibition is greater than or equal to 75%) | < 100 | – | – | – | – |
| C[C@H]1CN(Cc2ccc(Cl)c(C(N)=O)c2)CCN1C(=O)Oc1cncc(C(N)=O)c1 | – | – | – | – | B (% inhibition is greater than or equal to 50% and less than 75%) | – | – | – | – | A (50 μM) (% inhibition is greater than or equal to 75%) |
| NC(=O)c1cncc(OC(=O)N2CCN(Cc3cnccc3C(F)(F)F)CC2)c1 | – | – | A (% inhibition is greater than or equal to 75%) | – | – | – | – | A (10 μM) (% inhibition is greater than or equal to 75%) | – | – |
| Cc1c(F)cncc1OC(=O)N1CCN(Cc2cc(Cl)ccc2C(F)(F)F)CC1 | – | – | A (% inhibition is greater than or equal to 75%) | < 100 | A (% inhibition is greater than or equal to 75%) | 1000 to 10000 | – | – | – | – |
